Target: Mu-type opioid receptor (Rattus norvegicus, UniProt P33535)
Experiment: Binding affinity towards Opioid receptor mu 1 by displacing [3H]DAMGO in rat brain membranes.
Format: cell membranes
Outline: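 Rat brain minus cerebellum homogenised in 0.32 M sucrose/10 mM Tris-HCl and spun. The pellet was preincubated 1 h to strip endogenous opioids. Membranes were incubated with 1 nM [3H]DAMGO in 50 mM Tris-HCl, 0.1% BSA, 2 mM EDTA, pH 7.4, 1 h at room temperature. Nonspecific binding used 100 µM DAMGO. GF/B filtration, scintillation counting.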

The chains behind the UniProt entries cited, without tags or fusion partners.
UniProt P33535, whole entry: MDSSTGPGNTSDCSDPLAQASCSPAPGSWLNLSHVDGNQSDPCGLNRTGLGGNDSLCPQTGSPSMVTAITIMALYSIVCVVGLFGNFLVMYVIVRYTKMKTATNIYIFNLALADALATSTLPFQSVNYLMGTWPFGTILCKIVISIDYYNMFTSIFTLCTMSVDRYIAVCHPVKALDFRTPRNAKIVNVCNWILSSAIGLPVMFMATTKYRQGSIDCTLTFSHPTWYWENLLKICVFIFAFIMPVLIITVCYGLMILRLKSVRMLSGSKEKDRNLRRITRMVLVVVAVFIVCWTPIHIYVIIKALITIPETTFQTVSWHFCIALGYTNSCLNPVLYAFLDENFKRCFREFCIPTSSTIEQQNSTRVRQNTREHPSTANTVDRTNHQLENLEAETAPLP

`C[C@@H](NC(=O)[C@@H](N)Cc1ccc(O)cc1)C(=O)NCC(=O)N(C)[C@@H](Cc1ccccc1)C(=O)NCCO` [DAMGO] was tested, and the Ki was 1.6 nM.
